Tests used:
[1] = biological target: Epidermal growth factor receptor (Homo sapiens, UniProt P00533)
[2] = biological target: Vascular endothelial growth factor receptor 1 (Homo sapiens, UniProt P17948)
[3] = biological target: Vascular endothelial growth factor receptor (Homo sapiens, UniProt P17948+P35916+P35968); conditions: endothelial cell

Amino acid sequences for entries named in this document (tags omitted). A change or cut given only in a name is not applied to a line headed by its entry.
UniProt P00533, whole entry: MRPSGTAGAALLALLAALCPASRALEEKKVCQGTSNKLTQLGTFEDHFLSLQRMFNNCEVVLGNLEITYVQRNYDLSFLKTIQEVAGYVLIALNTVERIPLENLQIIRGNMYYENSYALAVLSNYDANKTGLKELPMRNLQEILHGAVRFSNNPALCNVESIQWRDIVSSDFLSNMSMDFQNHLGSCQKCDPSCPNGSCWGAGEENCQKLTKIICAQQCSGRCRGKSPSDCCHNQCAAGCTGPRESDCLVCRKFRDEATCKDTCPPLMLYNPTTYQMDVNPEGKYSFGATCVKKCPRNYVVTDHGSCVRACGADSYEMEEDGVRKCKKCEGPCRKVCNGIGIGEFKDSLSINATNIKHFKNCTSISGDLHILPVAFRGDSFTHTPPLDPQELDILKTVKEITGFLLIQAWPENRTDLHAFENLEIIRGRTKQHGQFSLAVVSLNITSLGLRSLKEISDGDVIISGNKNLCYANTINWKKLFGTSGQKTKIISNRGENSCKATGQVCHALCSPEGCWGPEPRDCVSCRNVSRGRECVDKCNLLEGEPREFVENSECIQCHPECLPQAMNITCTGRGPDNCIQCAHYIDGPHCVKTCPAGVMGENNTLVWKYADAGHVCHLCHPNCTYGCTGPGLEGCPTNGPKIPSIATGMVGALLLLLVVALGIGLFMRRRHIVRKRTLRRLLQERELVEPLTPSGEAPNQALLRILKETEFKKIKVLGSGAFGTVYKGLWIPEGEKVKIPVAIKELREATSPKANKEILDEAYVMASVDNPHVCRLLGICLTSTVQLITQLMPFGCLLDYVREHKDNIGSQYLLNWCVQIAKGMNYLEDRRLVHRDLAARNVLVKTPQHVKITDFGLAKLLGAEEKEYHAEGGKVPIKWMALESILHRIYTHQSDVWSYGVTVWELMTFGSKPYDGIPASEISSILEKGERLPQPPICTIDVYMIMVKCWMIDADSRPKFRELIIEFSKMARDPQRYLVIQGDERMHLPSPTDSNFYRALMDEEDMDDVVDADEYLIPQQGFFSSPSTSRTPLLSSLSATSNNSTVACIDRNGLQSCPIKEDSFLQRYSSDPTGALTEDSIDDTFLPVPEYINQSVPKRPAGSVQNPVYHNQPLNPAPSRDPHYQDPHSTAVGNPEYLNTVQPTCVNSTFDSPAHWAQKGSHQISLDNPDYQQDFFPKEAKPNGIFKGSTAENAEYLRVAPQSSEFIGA
UniProt P17948, whole entry: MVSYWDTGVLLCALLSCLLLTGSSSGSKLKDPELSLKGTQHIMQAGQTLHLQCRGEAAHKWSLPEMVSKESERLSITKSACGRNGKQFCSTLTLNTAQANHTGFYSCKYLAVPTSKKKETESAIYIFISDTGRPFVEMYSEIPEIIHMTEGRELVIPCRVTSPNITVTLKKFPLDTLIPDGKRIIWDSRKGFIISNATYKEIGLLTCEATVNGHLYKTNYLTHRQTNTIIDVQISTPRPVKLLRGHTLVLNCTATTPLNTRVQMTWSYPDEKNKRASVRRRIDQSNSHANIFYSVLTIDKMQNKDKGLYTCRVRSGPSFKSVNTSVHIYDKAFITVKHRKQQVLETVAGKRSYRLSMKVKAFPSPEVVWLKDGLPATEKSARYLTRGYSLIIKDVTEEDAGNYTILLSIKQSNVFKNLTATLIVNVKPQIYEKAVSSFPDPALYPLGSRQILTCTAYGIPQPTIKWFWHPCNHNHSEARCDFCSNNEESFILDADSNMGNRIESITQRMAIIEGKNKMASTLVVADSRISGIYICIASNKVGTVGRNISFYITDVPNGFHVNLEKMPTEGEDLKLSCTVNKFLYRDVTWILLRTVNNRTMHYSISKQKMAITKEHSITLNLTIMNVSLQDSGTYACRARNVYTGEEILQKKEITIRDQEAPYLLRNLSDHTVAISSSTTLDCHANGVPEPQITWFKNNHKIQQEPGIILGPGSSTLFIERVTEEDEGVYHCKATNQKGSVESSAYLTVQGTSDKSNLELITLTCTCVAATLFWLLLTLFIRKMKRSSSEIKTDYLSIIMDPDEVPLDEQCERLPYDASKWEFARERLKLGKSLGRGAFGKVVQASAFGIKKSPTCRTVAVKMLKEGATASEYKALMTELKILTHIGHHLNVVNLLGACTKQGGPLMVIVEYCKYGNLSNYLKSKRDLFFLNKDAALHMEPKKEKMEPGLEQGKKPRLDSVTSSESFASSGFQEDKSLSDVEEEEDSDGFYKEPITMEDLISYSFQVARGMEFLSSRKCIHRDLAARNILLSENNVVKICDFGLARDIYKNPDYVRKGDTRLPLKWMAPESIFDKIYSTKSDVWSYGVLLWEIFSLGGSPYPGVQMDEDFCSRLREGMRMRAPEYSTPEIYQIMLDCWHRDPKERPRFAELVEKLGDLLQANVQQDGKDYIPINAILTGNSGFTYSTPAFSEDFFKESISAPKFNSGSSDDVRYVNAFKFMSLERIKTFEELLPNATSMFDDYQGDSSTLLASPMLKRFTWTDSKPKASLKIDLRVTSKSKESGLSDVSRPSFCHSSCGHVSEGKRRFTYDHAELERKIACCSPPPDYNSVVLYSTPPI
UniProt P35916: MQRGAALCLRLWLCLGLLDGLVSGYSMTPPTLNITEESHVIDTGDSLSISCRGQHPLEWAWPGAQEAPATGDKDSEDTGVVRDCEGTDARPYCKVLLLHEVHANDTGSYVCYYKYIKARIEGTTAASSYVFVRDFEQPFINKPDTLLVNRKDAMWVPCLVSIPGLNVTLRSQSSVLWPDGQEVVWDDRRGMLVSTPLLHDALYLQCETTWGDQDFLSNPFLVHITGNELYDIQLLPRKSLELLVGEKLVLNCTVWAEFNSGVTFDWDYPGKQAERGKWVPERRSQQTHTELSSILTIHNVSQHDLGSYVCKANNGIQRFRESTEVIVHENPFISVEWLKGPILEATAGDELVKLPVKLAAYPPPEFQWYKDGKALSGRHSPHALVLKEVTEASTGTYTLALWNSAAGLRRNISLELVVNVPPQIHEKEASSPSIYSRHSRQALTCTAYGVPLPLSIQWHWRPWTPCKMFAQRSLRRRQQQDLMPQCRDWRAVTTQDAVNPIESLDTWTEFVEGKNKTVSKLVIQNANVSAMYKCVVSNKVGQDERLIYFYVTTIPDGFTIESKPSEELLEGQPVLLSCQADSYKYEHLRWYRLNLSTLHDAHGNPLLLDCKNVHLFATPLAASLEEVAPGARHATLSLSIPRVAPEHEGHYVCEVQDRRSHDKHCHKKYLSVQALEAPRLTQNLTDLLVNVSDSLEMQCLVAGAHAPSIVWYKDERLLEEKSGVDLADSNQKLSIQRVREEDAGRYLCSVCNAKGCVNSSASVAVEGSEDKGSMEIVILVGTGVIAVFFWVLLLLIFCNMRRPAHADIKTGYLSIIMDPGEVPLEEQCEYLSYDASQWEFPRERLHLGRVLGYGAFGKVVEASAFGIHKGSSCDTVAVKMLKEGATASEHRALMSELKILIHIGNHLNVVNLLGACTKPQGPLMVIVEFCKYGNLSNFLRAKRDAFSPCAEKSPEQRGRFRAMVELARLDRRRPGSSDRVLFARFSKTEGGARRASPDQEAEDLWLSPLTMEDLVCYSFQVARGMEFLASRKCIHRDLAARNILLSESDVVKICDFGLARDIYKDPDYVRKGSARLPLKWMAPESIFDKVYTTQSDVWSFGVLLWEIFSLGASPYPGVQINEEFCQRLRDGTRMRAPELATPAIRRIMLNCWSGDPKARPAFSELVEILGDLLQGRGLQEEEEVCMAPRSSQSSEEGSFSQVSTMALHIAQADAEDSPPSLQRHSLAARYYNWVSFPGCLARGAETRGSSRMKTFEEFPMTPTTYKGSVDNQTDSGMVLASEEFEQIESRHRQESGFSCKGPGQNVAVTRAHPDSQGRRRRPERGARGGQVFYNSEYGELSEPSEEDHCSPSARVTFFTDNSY
UniProt P35968: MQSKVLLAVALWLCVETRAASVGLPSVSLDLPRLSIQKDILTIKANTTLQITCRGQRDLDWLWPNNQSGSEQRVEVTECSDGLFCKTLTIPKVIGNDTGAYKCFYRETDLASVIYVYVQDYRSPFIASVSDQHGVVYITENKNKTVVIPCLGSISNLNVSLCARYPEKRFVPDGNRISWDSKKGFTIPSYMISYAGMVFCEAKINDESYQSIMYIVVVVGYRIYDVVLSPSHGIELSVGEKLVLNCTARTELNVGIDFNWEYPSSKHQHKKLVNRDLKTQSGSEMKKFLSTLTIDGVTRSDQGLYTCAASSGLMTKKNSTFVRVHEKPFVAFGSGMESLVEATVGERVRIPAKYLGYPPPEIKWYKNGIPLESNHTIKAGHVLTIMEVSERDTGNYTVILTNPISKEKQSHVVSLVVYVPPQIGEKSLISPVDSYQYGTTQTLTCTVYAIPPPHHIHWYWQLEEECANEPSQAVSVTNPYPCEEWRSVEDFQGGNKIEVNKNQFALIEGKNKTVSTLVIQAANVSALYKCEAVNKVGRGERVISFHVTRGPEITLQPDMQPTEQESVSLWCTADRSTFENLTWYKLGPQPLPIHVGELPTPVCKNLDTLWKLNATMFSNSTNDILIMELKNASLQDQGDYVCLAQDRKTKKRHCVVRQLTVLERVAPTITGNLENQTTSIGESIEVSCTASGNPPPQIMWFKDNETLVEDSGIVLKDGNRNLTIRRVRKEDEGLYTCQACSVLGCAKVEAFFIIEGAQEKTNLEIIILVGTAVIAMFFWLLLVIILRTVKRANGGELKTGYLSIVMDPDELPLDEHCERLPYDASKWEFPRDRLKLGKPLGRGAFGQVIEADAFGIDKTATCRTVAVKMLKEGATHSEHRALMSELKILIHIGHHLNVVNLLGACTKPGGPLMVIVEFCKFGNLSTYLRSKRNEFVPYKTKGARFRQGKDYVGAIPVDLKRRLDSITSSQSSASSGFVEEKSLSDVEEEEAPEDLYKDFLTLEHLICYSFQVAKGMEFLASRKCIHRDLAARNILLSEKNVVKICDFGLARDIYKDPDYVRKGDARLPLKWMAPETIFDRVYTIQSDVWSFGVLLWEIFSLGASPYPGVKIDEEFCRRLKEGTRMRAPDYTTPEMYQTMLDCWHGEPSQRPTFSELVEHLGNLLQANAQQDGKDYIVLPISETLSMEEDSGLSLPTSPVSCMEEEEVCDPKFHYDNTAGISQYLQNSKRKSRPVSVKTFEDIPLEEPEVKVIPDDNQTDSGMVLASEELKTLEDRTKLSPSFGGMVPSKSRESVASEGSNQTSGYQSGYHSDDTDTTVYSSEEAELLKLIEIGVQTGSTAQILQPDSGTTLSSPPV

Row | IC50 [1] | IC50 [2] | IC50 [3] | Compound
1 | 200 nM | 150 nM | 60 nM | COc1cc2c(Nc3ccc(Br)cc3F)ncnc2cc1OCCC1CCN(C)CC1
2 | 200 nM |  |  | COc1cc2c(Nc3ccc(Br)cc3F)ncnc2cc1OC[C@@H]1CCCN(C)C1
3 | 100 nM |  |  | COc1cc2c(Nc3ccc(Br)cc3F)ncnc2cc1OC[C@H]1CCCN(C)C1

The remaining lines, values behind:

Row | Compound | IC50 [1] | IC50 [2] | IC50 [3]
4 | COc1cc2c(Nc3ccc(Cl)cc3F)ncnc2cc1OCCCN1CCOCC1 | 100 nM |  | 50 nM
5 | COc1cc2c(Nc3ccc(Br)cc3F)ncnc2cc1OCCC1CCNCC1 | 200 nM |  | 

Source: ChEMBL document CHEMBL1135889, “Novel 4-anilinoquinazolines with C-7 basic side chains: design and structure activity relationship of a series of potent, orally active, VEGF receptor tyrosine kinase inhibitors” (J Med Chem, 2002)
